Source: patent US11638723B2, “Method for generating T cells progenitors” (Assistance Publique—Hopitaux de Paris, priority 2017, dated 2023)

Key:
Format in all cases: cell-based, human
[1] = test system: CD34+ cells from CB and mPB; experiment: Cell proliferation assay (CFSE)
Procedure: For cell proliferation assays, CD34+ cells from CB and mPB were labeled using the CellTrace™ CFSE kit (Life Technologies, Carlsbad, Calif.) prior to culture with DL-4 and TNF-alpha (Life Technologies). The cells' staining intensity was measured prior to culture each day from day 3 to day 7. CFSE-positive cell were analyzed on a Gallios cytometer (Beckman Coulter).
After 7 days of culture in presence of TNF-alpha, CD34+ CD7−, CD34+ CD7+ and CD34−CD7+ subsets were sorted, stained with CFSE (Carboxyfluorescein succinimidyl ester) and the dilution of CFSE (surrogate marker of cell proliferation) was followed from day 8 to 10.

DL-4 T-cell precursors = experiment: Analysis of T cell receptor rearrangement; details: after 7 days of culture
Procedure: TCR gene rearrangement analysis was performed in duplicate and on the two independently purified subsets (average is shown). TCR-δ quantification (D δ2-D δ3, D δ2-J δ1, and D δ3-J δ1) was performed with the listed sets of primers and probes. The analysis of TCR rearrangements by multiplex fluorescent PCR was performed by separation of fluorochrome-labeled single stand PCR products in a capillary sequencing polymer and detected via automated laser scanning.

[2] = test system: cells differentiated from cord blood CD34+ cells; experiment: Apoptosis assay (7AAD / Annexin V); details: CB, culture in presence of TNF-alpha
Procedure: (§1) Cells were washed by cold PBS and resuspended in binding buffer at a concentration of 1 million cells/ml. After adding 5 ul Annexin V-PE (BD Bioscience) and 2 ul 7AAD, cells were incubated in the dark at room temperature for 15 min. Subsequently, cells were washed with 500 ul binding buffer and resuspended in 100 ul binding buffer to be analyzed within 1 hour.
(§2) Apoptosis markers (7AAD and Annexin5) were studied.

[3] = test system: cells differentiated from mobilized peripheral blood CD34+ cells; experiment: Apoptosis assay (7AAD / Annexin V); details: mPB, culture in presence of TNF-alpha
Procedure: as §1, §2

[4] = test system: CD34+ cells from mobilized peripheral blood; experiment: DL-4 culture of CD34+ cells, T-cell precursor generation (flow cytometry)
Procedure: CD34+ cells from human CB or mobilized peripheral blood samples were cultured in 24-well plates or 6-well plates that had been coated with recombinant human fibronection (RetroNectin®, Clontech/Takara) and DL-4 (5 μg/ml, PX'Therapeutics, Grenoble, France). Coating was performed for 2 h at 37° C., DL-4 coated wells were then blocked with bovine serum albumin 2% (BSA) in phosphate-buffered saline (PBS) for 30 minutes at 37° C. and washed with PBS. Cultures were initiated at a concentration of 2×10^4 cells/well or 1×10^5 cells/well (for 24-well and 6-well plates respectively) in α-MEM medium (Gibco, life Technology), supplemented with NaHCO3 (7.5%) (Gibco, life Technology) and 20% defined fetal calf serum (Hyclone, Thermo Fisher Scientific, Illkirch, France) and the recombinant human cytokines interleukin-7 (IL-7), Flt3-ligand (Flt-3), stem cell factor (SCF) and thrombopoietin (TPO) (all at 100 ng/ml and all purchased from PeproTech Inc, Rocky Hill, N.J.) with or without TNF-α (R&D Systems, US). After 3 days of culture, the cells were half replaced by fresh medium. Cultured cells were analyzed by fluorescence-activated cell sorting (FACS) after 3 and 7 days of culture on DL-4 respectively to exclude CD34-/CD7-myeloid cells from subsequent analyses.
Human cells were stained and analyzed using a Gallios analyzer (Beckman Coulter, Krefeld, Germany). Cells from xenogenic recipients were analysed on a MACSQuant® apparatus (Miltenyi Biotech, Bergisch Gladbach, Germany). The data were analyzed using FlowJo software (Treestar, Ashland, Oreg.) after gating on viable, 7AAD-negative cells. Cell subsets were sorted on an ARIA II system.
For cell cycle analysis, cells were stained with Hoechst33342 (Life technology) and Ki67-PC5 (BD Bioscience) after fixed with Fixative reagent of PerFix-nc kit (Beckman Coulter) at room temperature for 15 min, and added permeablizing reagent. The data were analyzed using FlowJo software (version 10.2, Treestar, Ashland, Oreg.) after gating on viable, 7AAD-negative cells.

[5] = test system: CD34+ cells from cord blood; experiment: as above
Procedure: CD34+ cells from human CB or mobilized peripheral blood samples were cultured in 24-well plates or 6-well plates that had been coated with recombinant human fibronection (RetroNectin®, Clontech/Takara) and DL-4 (5 μg/ml, PX'Therapeutics, Grenoble, France). Coating was performed for 2 h at 37° C., DL-4 coated wells were then blocked with bovine serum albumin 2% (BSA) in phosphate-buffered saline (PBS) for 30 minutes at 37° C. and washed with PBS. […] After 3 days of culture, the cells were half replaced by fresh medium. Cultured cells were analyzed by fluorescence-activated cell sorting (FACS) after 3 and 7 days of culture on DL-4 respectively to exclude CD34-/CD7-myeloid cells from subsequent analyses. Human cells were stained and analyzed using a Gallios analyzer (Beckman Coulter, Krefeld, Germany). Cells from xenogenic recipients were analysed on a MACSQuant® apparatus (Miltenyi Biotech, Bergisch Gladbach, Germany). The data were analyzed using FlowJo software (Treestar, Ashland, Oreg.) after gating on viable, 7AAD-negative cells. Cell subsets were sorted on an ARIA II system. For cell cycle analysis, cells were stained with Hoechst33342 (Life technology) and Ki67-PC5 (BD Bioscience) after fixed with Fixative reagent of PerFix-nc kit (Beckman Coulter) at room temperature for 15 min, and added permeablizing reagent. The data were analyzed using FlowJo software (version 10.2, Treestar, Ashland, Oreg.) after gating on viable, 7AAD-negative cells.

[6] = mPB, 7 days of culture, flow cytometry
[7] = Cord blood, 7 days of culture, flow cytometry

TNF-alpha: soluble TNF-alpha (Tumor Necrosis Factor Alpha, Uniprot P01375, SEQ ID NO: 8), added to the culture medium
proliferation of CD34+ CD7+ T-cell precursors as compared to culture without TNF-alpha ([1]; since day 3 in DL-4 culture): increase the proliferation
proliferation (CFSE dilution) of sorted CD34+ CD7+ and CD34−CD7+ subsets ([1]; sorted after 7 days of culture, followed day 8 to 10): increased proliferation
signs of TCR rearrangement (DL-4 T-cell precursors): do not exhibit any signs of TCR rearrangement
7AAD +/− AnnexinV+ apoptotic cells (%) [2]: 0.28%
7AAD +/− AnnexinV+ apoptotic cells (%) [3]: 0.96%
multiplication of total number of cells recovered at day 7 as compared to culture without TNF-alpha ([4]; PB CD34+ cells cultured with DL-4, FIG. 1.B, TNF-alpha 100 ng/ml): 10 times
increase of number of CD7+ cells (T-cell progenitors) at day 7 ([4]; mPB HSPC, TNF-alpha from day 0 in DL-4 culture): 40 fold
TNF-alpha concentration at which CD7+ cell numbers increase during culture ([4]; mPB cells, dose response, day 3 to day 7, FIG. 6.B): more than 10 ng/ml
cell cycle analysis, cells in G0 phase ([4]; mPB derived CD7+ progenitors, TNF-alpha 20 ng/ml, FIG. 8): more cells were released from G0 phase
effect on T-cell differentiation (percentage of CD34− CD7+ cells), dose response ([4]; mPB, 0.01-10 ng/ml, FIG. 7): concentration-dependent at low concentration
expression of Bcl11b (intracellular staining), proportion of expressing cells ([4]; mPB, 7 days of culture, FIG. 3): positive expression of Bcl11b
CD5+ CD7+ cells [4, 6]: 3.01
CD5+ CD7− cells [4, 6]: 0.24
CD5− CD7+ cells [4, 6]: 87.7
CD5− CD7− cells [4, 6]: 9.00
CD34+ CD7+ cells [4, 6]: 0.68
CD34+ CD7− cells [4, 6]: 2.75
CD34− CD7+ cells [4, 6]: 90.1
CD34− CD7− cells [4, 6]: 6.49
frequency of myeloid cells (CD14 and CD33) at day 7 ([4]; mPB, FIG. 5): not detectable
differentiation into CD7+ T-cell precursors without DL4 ([4]; mPB, day 7, without DL4, FIG. 4): couldn't rescue
increase of number of CD7+ cells (T-cell progenitors) at day 7 ([5]; CB HSPC, TNF-alpha from day 0 in DL-4 culture): 20 fold
TNF-alpha concentration at which CD7+ cell numbers increase during culture ([5]; CB cells, dose response, day 3 to day 7, FIG. 6.A): more than 10 ng/ml
cell cycle analysis, cells in G0 phase ([5]; CB derived CD7+ progenitors, TNF-alpha 20 ng/ml, FIG. 8): more cells were released from G0 phase
effect on T-cell differentiation (percentage of CD34− CD7+ cells), dose response ([5]; CB, 0.01-10 ng/ml, FIG. 7): concentration-dependent at low concentration
frequency of myeloid cells (CD14 and CD33) at day 7 ([5]; CB, FIG. 5): not detectable
differentiation into CD7+ T-cell precursors without DL4 ([5]; CB, day 7, without DL4, FIG. 4): couldn't rescue
CD5+ CD7+ cells [5, 7]: 0.66
CD5+ CD7− cells [5, 7]: 0.012
CD5− CD7+ cells [5, 7]: 95.4
CD5− CD7− cells [5, 7]: 3.97
CD34+ CD7+ cells [5, 7]: 0.39
CD34+ CD7− cells [5, 7]: 0.76
CD34− CD7+ cells [5, 7]: 95.6
CD34− CD7− cells [5, 7]: 3.22
multiplication of total number of cells recovered at day 7 as compared to culture without TNF-alpha ([5]; cord blood CD34+ cells cultured with DL-4, FIG. 1.A, TNF-alpha 100 ng/ml): 10 times
expression of Bcl11b (intracellular staining), proportion of expressing cells ([5]; cord blood, 7 days of culture, FIG. 3): positive expression of Bcl11b
